# According to US8828401B2, “Cytotoxic peptides and antibody drug conjugates thereof” (Pfizer Inc., priority 2011, dated 2014):
# B1: hu75-vc0101: humanized anti-Notch antibody hu75 conjugated to mcValCitPABC-#54 (conjugate)
# heavy: EVQLVESGGGLVQPGGSLRLSCAASGYAFTDYWMTWVRQAPGKGLEWVAEISPNSGGTNFNEKFKGRFTISVDNAKNSLYLQMNSLRAEDTAVYYCARGEIRYNWFAYWGQGTLVTVSSASTKGPSVFPLAPSSKSTSGGTAALGCLVKDYFPEPVTVSWNSGALTSGVHTFPAVLQSSGLYSLSSVVTVPSSSLGTQTYICNVNHKPSNTKVDKKV[human IgG1 Fc left out]
# light: DIQMTQSPSSLSASVGDRVTITCKASQNVGNNIAWYQQKPGKAPKLLIYYASNRYTGVPSRFSGSGYGTDFTLTISSLQPEDFATYYCQRLYNSPFTFGGGTKVEIKRTVAAPSVFIFPPSDEQLKSGTASVVCLLNNFYPREAKVQWKVDNALQSGNSQESVTEQDSKDSTYSLSSTLTLSKADYEKHKVYACEVTHQGLSSPVTKSFNRGEC
# Tests used:
# U2OS/hNotch = assay: In vitro cytotoxicity assay with anti-Notch ADCs (MTS); assay type: cell-based
# Experimental: (§1) The effects of anti-Notch ADCs were assessed on 1) cell lines endogenously expressing Notch protein: HCC2429 (lung cancer), OVCAR3 (ovarian cancer) and MDA-MB-468 (breast cancer), 2) cell lines engineered to over-express Notch protein: MDA-MB-468/hNotch and U2OS/hNotch, and 3) a negative control cell line (SW900) using an MTS cellular viability indicator (Promega, Madison, Wis.). These cell lines were cultured with increasing concentrations of anti-Notch ADCs comprising humanized anti-Notch antibodies, hu28 and hu75, and rat-human chimeric anti-Notch antibodies, ch28 and ch75, conjugated to various linker-payload combinations of the present invention. As a specificity control for the anti-Notch-ADCs, non-targeted control-ADCs (huNeg8.8-ADCs or ch2H6-ADCs) were also tested on the same cell lines. After four days, viability of each culture was assessed. IC50 values were calculated by logistic non-linear regression and presented as ng Ab/mL. The drug antibody ratio (DAR) is also provided.
# [1] = test system: MDA-MB-468 (breast cancer); assay: as above; assay type: cell-based
# Experimental: as §1
# [2] = test system: MDA-MB-468 breast xenografts; assay: MDA-MB-468 breast xenografts with anti-Notch ADCs; assay type: in vivo, female SCID Hairless Outbred (SHO) mice
# Experimental: Humanized anti-Notch antibodies, hu28 and hu75, and rat-human chimeric anti-Notch antibodies, ch28 and ch75, were conjugated to various linker-payload combinations and tested in 37622A1 non-small cell lung cancer (NSCLC), HCC2429 lung cancer, MDA-MB-468 breast cancer and N87 gastric cancer xenograft models. For each model described below the first dose was given on Day 0. The tumors were measured at least once a week and their volume was calculated with the formula: tumor volume (mm^3)=0.5×(tumor width^2)(tumor length). The mean tumor volumes (±S.E.M.) for each treatment group were calculated having a maximum of 10 animals and a minimum of 6 animals to be included.
# Similar in vivo experiments were performed with the MDA-MB-468 breast cancer cell line as described above. […] To generate xenografts, female SCID Hairless Outbred (SHO) mice were orthotopically implanted with 10×10^6 MDA-MB-468 cells containing 50% Matrigel (BD Biosciences) in the mammary fat pad. When the tumors reached a volume of 250 to 450 mm^3, the tumors were staged to ensure uniformity of the tumor mass among various treatment groups. The MDA-MB-468 breast model was dosed intraveneously Q4dx4 with PBS vehicle, humanized anti-Notch ADCs and control huNeg-8.8 ADCs at the doses provided in Tables 14 and 15.
molecule,measurement,setting,value
B1,IC50 (ng Ab/mL),U2OS/hNotch,523 ng Ab/mL
same,IC50 (ng Ab/mL),[1],7001 ng Ab/mL
same,tumor volume (mm^3 ± SEM),"[2]; Dose 0.3 mg/kg Q4dx4 iv, DAY 0",348 ± 21 mm^3
same,tumor volume (mm^3 ± SEM),"[2]; Dose 0.3 mg/kg Q4dx4 iv, DAY 4",439 ± 31 mm^3
same,tumor volume (mm^3 ± SEM),"[2]; Dose 0.3 mg/kg Q4dx4 iv, DAY 7",435 ± 27 mm^3
same,tumor volume (mm^3 ± SEM),"[2]; Dose 0.3 mg/kg Q4dx4 iv, DAY 11",504 ± 38 mm^3
same,tumor volume (mm^3 ± SEM),"[2]; Dose 0.3 mg/kg Q4dx4 iv, DAY 14",507 ± 30 mm^3
same,tumor volume (mm^3 ± SEM),"[2]; Dose 0.3 mg/kg Q4dx4 iv, DAY 18",587 ± 44 mm^3
same,tumor volume (mm^3 ± SEM),"[2]; Dose 0.3 mg/kg Q4dx4 iv, DAY 21",590 ± 55 mm^3
same,tumor volume (mm^3 ± SEM),"[2]; Dose 0.3 mg/kg Q4dx4 iv, DAY 26",652 ± 64 mm^3
same,tumor volume (mm^3 ± SEM),"[2]; Dose 0.3 mg/kg Q4dx4 iv, DAY 29",675 ± 63 mm^3
same,tumor volume (mm^3 ± SEM),"[2]; Dose 0.3 mg/kg Q4dx4 iv, DAY 32",738 ± 70 mm^3
same,tumor volume (mm^3 ± SEM),"[2]; Dose 0.3 mg/kg Q4dx4 iv, DAY 35",821 ± 69 mm^3
same,tumor volume (mm^3 ± SEM),"[2]; Dose 0.3 mg/kg Q4dx4 iv, DAY 39",864 ± 74 mm^3
same,tumor volume (mm^3 ± SEM),"[2]; Dose 0.3 mg/kg Q4dx4 iv, DAY 42",997 ± 84 mm^3
same,tumor volume (mm^3 ± SEM),"[2]; Dose 1 mg/kg Q4dx4 iv, DAY 0",347 ± 22 mm^3
same,tumor volume (mm^3 ± SEM),"[2]; Dose 1 mg/kg Q4dx4 iv, DAY 4",410 ± 32 mm^3
same,tumor volume (mm^3 ± SEM),"[2]; Dose 1 mg/kg Q4dx4 iv, DAY 7",383 ± 33 mm^3
same,tumor volume (mm^3 ± SEM),"[2]; Dose 1 mg/kg Q4dx4 iv, DAY 11",373 ± 33 mm^3
same,tumor volume (mm^3 ± SEM),"[2]; Dose 1 mg/kg Q4dx4 iv, DAY 14",350 ± 40 mm^3
same,tumor volume (mm^3 ± SEM),"[2]; Dose 1 mg/kg Q4dx4 iv, DAY 18",296 ± 33 mm^3
same,tumor volume (mm^3 ± SEM),"[2]; Dose 1 mg/kg Q4dx4 iv, DAY 21",260 ± 49 mm^3
same,tumor volume (mm^3 ± SEM),"[2]; Dose 1 mg/kg Q4dx4 iv, DAY 26",267 ± 59 mm^3
same,tumor volume (mm^3 ± SEM),"[2]; Dose 1 mg/kg Q4dx4 iv, DAY 29",261 ± 62 mm^3
same,tumor volume (mm^3 ± SEM),"[2]; Dose 1 mg/kg Q4dx4 iv, DAY 32",264 ± 67 mm^3
same,tumor volume (mm^3 ± SEM),"[2]; Dose 1 mg/kg Q4dx4 iv, DAY 35",326 ± 86 mm^3
same,tumor volume (mm^3 ± SEM),"[2]; Dose 1 mg/kg Q4dx4 iv, DAY 39",324 ± 81 mm^3
same,tumor volume (mm^3 ± SEM),"[2]; Dose 1 mg/kg Q4dx4 iv, DAY 42",381 ± 94 mm^3
same,tumor volume (mm^3 ± SEM),"[2]; Dose 1 mg/kg Q4dx4 iv, DAY 47",442 ± 69 mm^3
same,tumor volume (mm^3 ± SEM),"[2]; Dose 1 mg/kg Q4dx4 iv, DAY 50",484 ± 89 mm^3
same,tumor volume (mm^3 ± SEM),"[2]; Dose 1 mg/kg Q4dx4 iv, DAY 53",452 ± 78 mm^3
same,tumor volume (mm^3 ± SEM),"[2]; Dose 1 mg/kg Q4dx4 iv, DAY 56",535 ± 93 mm^3
same,tumor volume (mm^3 ± SEM),"[2]; Dose 1 mg/kg Q4dx4 iv, DAY 60",603 ± 98 mm^3
same,tumor volume (mm^3 ± SEM),"[2]; Dose 3 mg/kg Q4dx4 iv, DAY 0",347 ± 20 mm^3
same,tumor volume (mm^3 ± SEM),"[2]; Dose 3 mg/kg Q4dx4 iv, DAY 4",444 ± 28 mm^3
same,tumor volume (mm^3 ± SEM),"[2]; Dose 3 mg/kg Q4dx4 iv, DAY 7",338 ± 20 mm^3
same,tumor volume (mm^3 ± SEM),"[2]; Dose 3 mg/kg Q4dx4 iv, DAY 11",277 ± 22 mm^3
same,tumor volume (mm^3 ± SEM),"[2]; Dose 3 mg/kg Q4dx4 iv, DAY 14",181 ± 19 mm^3
